Measured affinities in a library of Ab-95 light chain variants

Target peptide (SARS-CoV-2 spike, HR2 region): PDVDLGDISGINAS

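The parent was found by panning a naive human phage display library on the peptide. AAYL52 was designed without a model: most single CDR substitutions and a random sample of double and triple ones. In AlphaSeq, yeast of one mating type display the scFv and yeast of the other type display the target. The frequency of each diploid, read from paired DNA barcodes, reflects how well the two displayed proteins bind. A regression on co-assayed BCL2-family reference pairs converts the normalised counts of each replicate to an apparent Kd. Mating was done three times.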

Parent: Ab-95, a human scFv built as VH, a (GGGGS)3 linker, VL. Only the CDRs of the light chain vary.
VH: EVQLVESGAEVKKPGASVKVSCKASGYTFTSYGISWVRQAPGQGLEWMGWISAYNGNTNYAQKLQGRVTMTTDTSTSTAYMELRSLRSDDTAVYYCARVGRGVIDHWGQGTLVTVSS
VL: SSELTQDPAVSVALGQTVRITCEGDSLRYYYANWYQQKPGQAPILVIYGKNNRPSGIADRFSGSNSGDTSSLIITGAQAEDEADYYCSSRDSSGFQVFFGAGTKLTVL

Each variant is given by its three light chain CDRs, as the data file delimits them; those of the parent are EGDSLRYYYAN, GKNNRPS, SSRDSSGFQVF. Scale: log10 of Kd in nM, estimated from mating counts; low values are strong binders. "ND" marks a missing value. The strain was present, yet no cells mated with the target were sequenced in that replicate, which points to weak or no binding. As a blank, each scFv also met three strains without target: over library AAYL52, 28% of these pairings were detected, typically at 3.91 and seldom below 2.90. The control count says in how many pairings with the empty strains this scFv gave a signal, with their mean in brackets.

CDR-L1	CDR-L2	CDR-L3	log10 Kd, replicates	control signals
EVDSLRYYYAN	GKNNRSS	RSRDSSGFQVF	ND ND 3.13	2/9 (4.33)
EGDSLRYYYAN	GENNRPV	SSRTSSGFQVF	3.76 3.47 4.04	4/9 (4.51)
IGDSLRYYNAN	GKNNRPS	SSRDSMGFQVF	1.88 1.86 1.66	4/9 (4.28)
EGDSLRYYTAN	GKNWRRS	SSRDSSGFQVF	ND ND ND	1/9 (4.18)
EGDSRRYTYAN	GKNNRES	SSRDSSGFQVF	4.01 5.99 ND	5/9 (3.78)
AGDSLRYYYAN	GKNNRPS	SSRDSSGFQVF	4.37 2.76 ND	0/9
EGDSLRYYMAC	GKNNRES	SSRDSSGFQVF	ND ND ND	1/9 (2.17)
EGDVLRYYYAN	GKNDRPS	SSRDNSGFQVF	3.25 3.08 ND	2/9 (3.09)
EGDSLRYYYAN	GKNNRPS	DSRDVSGFQVF	3.80 ND ND	1/9 (5.52)
EGDSLRQYYAN	GKNNRPW	SSRDSSGDQVF	2.46 2.68 2.73	5/9 (3.71)
EMDSLRYYYVN	GKNNRPV	SSRDSSGFQVF	2.67 3.07 2.49	1/9 (3.56)
EGDSLRYYHAN	EKNNRPS	SSRDSSGFQVF	1.86 1.96 1.52	0/9
EGDSLRYYYVN	SKTNRPS	SSRDSSGFQVF	ND ND ND	2/9 (4.08)
EGDSLRYYYAN	GKNNRPS	SSRDSSPCQVF	3.78 3.44 3.58	5/9 (3.61)
EGDSLSYYEAN	GKNNRPI	SSRDSSGFQVF	1.96 1.60 1.89	1/9 (4.26)
EGDSLRYYYAR	GKNNYPS	SSRDSSGFQWF	ND ND ND	2/9 (2.65)
EWDSNRYYRAN	GKNNRPS	SSRDSSGFQVF	3.15 2.82 2.97	1/9 (3.96)
EGDSLRYYYAN	GHNNRNS	SSRDPSGFQVF	3.03 3.59 2.72	7/9 (4.16)
EGDSLRYPYAN	GKQNRPS	SSRDSSLFQVF	2.12 2.63 2.60	4/9 (4.14)
EGDSLRTYYAN	GKNNMPS	SRRDSSGFQVF	4.85 5.81 ND	3/9 (3.60)
DRDSLRYYYAN	GKNNRPK	SSRDSSGFQVF	2.90 2.42 2.60	2/9 (3.77)
EGDSLRYYYAN	GCNNEPS	SSRDSSGFQVF	ND ND 4.28	4/9 (3.06)
EGDSLRYYYLN	GKNNRPS	SSRDSSGFFVF	ND ND 3.07	4/9 (3.94)
EGFSLRYGYAN	GKNNRPS	SSRDSSLFQVF	2.79 2.64 2.97	2/9 (4.22)
EGDSSRYYYAN	GKNNRPS	DSRDSSGGQVF	4.00 ND 3.71	1/9 (3.27)
EGDSMRYYYAN	GKNNRPR	SSRDQSGFQVF	2.63 2.17 2.60	3/9 (3.93)
MGDSLRYYYAN	GKNNRPS	SSNVSSGFQVF	2.40 2.57 2.38	2/9 (3.46)
EGDSLRYYYAN	GKMNRES	SSRDSSGFDVF	4.51 ND ND	0/9
PGDSLRYYYAN	GKNNRPQ	SSRDMSGFQVF	1.99 2.02 2.46	3/9 (3.99)
EADSLRYYYAN	GPNNRPS	SSRDCSGFQVF	3.14 2.45 1.99	5/9 (4.50)
EGDSLEYYYEN	GKNNRPS	SSRDSSGFQVF	ND ND ND	2/9 (3.59)
EGDSLRYWYAN	GKNNRPS	SSRDKSKFQVF	ND ND ND	1/9 (4.18)
EGDSLRYYYAN	GKNNQPS	SSRVCSGFQVF	2.83 ND ND	1/9 (2.75)
EGDSLRYYYAN	GKNNWPS	SFRDSPGFQVF	5.51 ND ND	4/9 (4.20)
EGDSLREYYAN	GKNNRPW	SSRDSSQFQVF	3.07 4.49 4.46	3/9 (4.06)
EGDSLRYYYAL	GKNYRPS	SSRKSSGFQVF	ND ND ND	5/9 (3.69)
NGDSLRYYYAN	GKNNRPS	SSRGSSGNQVF	2.67 2.25 2.27	3/9 (4.22)
EGDSLRYYYAN	GENNRPY	SSRDSSGIQVF	ND ND 3.99	1/9 (3.28)
EGDSLRYYYLN	GKNNKPS	SSRQSSGFQVF	4.67 4.50 3.60	4/9 (4.10)
EGDGIRYYYAF	GKNNRPS	SSRDSSGFQVF	ND ND ND	2/9 (4.23)

For reference, the parent read 2.31 as the reference entry and 2.25 as a member of this library.

Reference: Engelhart et al. 2022, doi:10.1038/s41597-022-01779-4. File: FLAb, binding data.